Columns and labels:
MAGI-1 PDZ3 domain = assay: Ligand binding assay with purified MAGI-1 PDZ3 domain
From the text: (§1) Ligand binding assay between TAT-ESAM and purified MAGI-1 PDZ1 or PDZ-3.
(§2) MAGI-1 PDZ3 domain was used as a control.

Protein sequences, listed by entry. Tags and fused reporters are not part of them. Residues count along the entry.
UniProt Q96QZ7, 643-721 limits assumed: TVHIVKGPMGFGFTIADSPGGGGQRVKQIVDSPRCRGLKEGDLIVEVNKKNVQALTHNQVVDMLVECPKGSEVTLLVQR
UniProt Q96QZ7, 472-554 limits assumed: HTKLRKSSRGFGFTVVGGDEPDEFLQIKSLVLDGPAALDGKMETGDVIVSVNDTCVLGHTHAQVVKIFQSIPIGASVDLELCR

MAGI-1 PDZ2 domain = MAGI-1 PDZ2 domain (Homo sapiens, UniProt Q96QZ7); assay: Ligand binding assay with MAGI-1 PDZ2 domain (control); settings: not shown
From the text: as §1

CHO cells = assay: Cell entry of TAT peptide (MALDI-TOF, TAMRA confocal microscopy) in CHO cells; assay type: cell-based, Chinese hamster; settings: 1 hr at 37° C.
Protocol: (§3) MALDI-TOF analysis of TAT-CAR^Ex8 peptides associate with (A) CHO cells (non-epithelial) and (B) MDCK epithelia. […] CHO or MDCK were incubated with either TAT-CAR^Ex8 or vehicle for 1 hr at 37° C. Cell pellets obtained were used for MALDI-TOF. TAT-CAR^Ex8 enters cells and peaked at m/z 2536. (C) CHO or (D) MDCK cells were treated with either vehicle control (PBS) or fluorescently labelled TAMRA-TAT-CAR^Ex8. Peptide was detectable within 1 h after incubation inside cells. White arrows indicate ER/Golgi region of cell with intense TAMRA (red) fluorescence. 60× oil immersion confocal microscopy, White line=10 μm.

MDCK epithelia = assay: Cell entry of TAT peptide (MALDI-TOF, TAMRA confocal microscopy) in MDCK epithelia; assay type: cell-based, canine; settings: 1 hr at 37° C.
Protocol: as §3

CAR^Ex8 [1] = assay: Western blot / apical surface biotinylation of CAR^Ex8 in MDCK epithelia; assay type: cell-based, canine
From the text: (§4) MAGI-1 PDZ binding peptides (BP) can alter CAR^EX8 apical protein levels and AdV infection. […] A) MAGI-1 PDZ1 can rescue CAR^Ex8 expression while PDZ3 decreases CAR^EX8 expression. B) Peptides that bind to PDZ3 will prevent degradation of CAR^Ex8 and rescue CAR^EX8 expression and C) peptides that bind to PDZ1 will prevent rescue of CAR^Ex8 and […] CAR^Ex8 degradation. D) Apical surface-specific biotinylation of polarized MDCK epithelia treated with PDZ1 binding peptide decreases apical levels of CAR^EX8 while PDZ3 binding peptide increase apical CAR^EX8, relative to control. E) Treatment with PDZ3 binding peptide increases while PDZ1 binding peptide decreases AdV5-β-Gal entry as determined by qPCR for viral genomes (Vg). F) AdV5-Cre infection turns cells from red (uninfected) to green (infected) in tDT-mouse airway epithelial cells. Baseline infection in control-peptide treated airway epithelia show an even distribution of uninfected red cells and infected green cells.
(§5) (A) Western blotting of MDCK cells treated with either TAT-CAR^Ex8 or control TAT-CAR^Ex8-AA. […] (C) Polarized MDCK cells were treated with either TAT-CAR^Ex8 or TAT-ESAM and the apical surface subjected to apical surface biotinylation, followed by neutravidin pull down and Western blot of apical surface proteins. […] (E) TAT-cell permeable peptides interrupt MAGI-1-CAR^Ex8 interactions. Western immunoblots showing immunoprecipitates (IP, left lanes) from inducible MDCK-CAR^Ex8 epithelia pretreated with TAT-CAR^Ex8 or control TAT-CAR^Ex8-AA. Stable MDCK-CAR^Ex8 cells were induced with 200 ng/ml Dox for 24 hrs. After overnight induction, cells were treated with either TAT-CAR^Ex8 or TAT-CAR^Ex8-AA (100 μM). CAR^Ex8 was immunoprecipitated using flag antibody. MAGI-1 was blotted to determine co-IP. […] Right lanes show cell lysate with no immunoprecipitation, acting as positive controls. (F) TAT-CAR^Ex8 and TAT-ESAM-mediated increase of apical CAR^Ex8 is reduced by the protein synthesis inhibitor cycloheximide (CHX). Western immunoblotting of CAR^Ex8 in MDCK epithelia treated with either TAT-CAR^Ex8 or TAT-ESAM in the presence or absence of the protein synthesis inhibitor CHX. TAT-PDZ3 binding peptides increase CAR^Ex8 protein level, the effect was reduced upon pre-treatment with CHX. *p<0.05.
(A) Western Blotting from MDCK epithelia treated with either TAT-scramble or TAT-PDZ1 peptides (TAT-E6 or TAT-NET1). […] Actin was used to confirm equal protein loading. […] (C) TAT-PDZ1 binding peptides decrease CAR^Ex8 by inducing degradation of the translated protein as shown by Western Blotting of cell lysate from MDCK epithelia treated with TAT-PDZ1 peptides in the presence or absence of the proteosomal and RIP inhibitor, MG-132. […]

AdV [2] = assay: qPCR of AdV viral genome (transduction/entry) in MDCK epithelia; assay type: cell-based, canine; settings: versus control
From the text: as §4
(A) Western blotting of MDCK cells treated with either TAT-CAR^Ex8 or control TAT-CAR^Ex8-AA. […] (C) Polarized MDCK cells were treated with either TAT-CAR^Ex8 or TAT-ESAM and the apical surface subjected to apical surface biotinylation, followed by neutravidin pull down and Western blot of apical surface proteins. […] (E) TAT-cell permeable peptides interrupt MAGI-1-CAR^Ex8 interactions. […]

[3] = test system: MAGI-1-CAR^Ex8 interactions; assay: Co-immunoprecipitation of MAGI-1 with Flag-CAR^Ex8 in inducible MDCK-CAR^Ex8 epithelia; assay type: cell-based, canine; settings: 100 μM peptide, 200 ng/ml Dox for 24 hrs
Protocol: as §5

CAR^Ex8 [4] = assay: Immunocytochemistry of CAR^Ex8 in polarized MDCK cells; assay type: cell-based, canine
From the text: CAR^Ex8 is localized mainly at the apical surface of polarized MDCK cells. […] Red (CAR^Ex8), Green (MAGI-1, a junctional protein), Blue (nucleus, DAPI). 60× oil immersion confocal microscopy.
(A) CAR^Ex8 (red) localizes mainly at the apical membrane of MDCK epithelial cells (see xz section). […] 60× oil immersion confocal microscopy.

CAR^Ex8 [5] = assay: Western blot of CAR^Ex8 in well differentiated primary human airway epithelia; assay type: cell-based; settings: versus control
From the text: (A) Western blotting from human airway epithelia treated with either TAT-scramble or TAT-PDZ1 peptides (TAT-E6 or TAT-NET1). […] Actin was used to confirm equal protein loading.

AdV [6] = assay: qPCR of AdV viral genome in primary human airway epithelia; assay type: cell-based; settings: versus control
[7] = test system: primary human airway epithelia; assay: Epithelial integrity (TER, FITC-Dextran diffusion) and toxicity; assay type: cell-based
Protocol: In panel (A), epithelial cells were seeded on transwells and treated with a single dose of PBS, TAT-scramble or TAT-PDZ3 (TAT-CAR^Ex8 or TAT-ESAM) peptides (50 μM) daily for 16 days. Transepithelial resistance (TER) was measured every other day for 16 days to indicate the amount of epithelial polarization. […] Each condition represents the average of 4 replicates. (B) FITC-Dextran 4 kDa diffusion across treated epithelia in the absence of EDTA. […] (C) Pre-treatment with EDTA to disrupt tight junctions increased Dextran 4 kDa permeability in all conditions. FITC-Dextran 4 kDa was added to the apical membrane compartment and Dextran present in the basolateral media was measured and quantified. […] FITC-Dextran 70 kDa was added to the apical membrane compartment and Dextran in the basolateral media was measured and quantified.
(A) Primary human airway epithelial cells were treated with a single dose of PBS, TAT-scramble (50 μM), or TAT-PDZ1 peptides (50 μM) each day for 14 days. Transepithelial resistance (TER) was taken every other day for 14 days. No change in TER was noticeable upon treatment with TAT-PDZ1 peptides indicating similar epithelium formation. (B) FITC-Dextran 4 kDa diffusion across treated epithelia in the presence or absence of EDTA. There was no difference in Dextran 4 kDa diffusion among treatments indicating intact epithelial tight junctions. Pre-treatment with EDTA increased Dextran 4 kDa permeability similarly in all conditions indicating disruption of epithelial tight junctions. FITC-Dextran 4 kDa was added to the apical membrane and the diffused Dextran was collected from the basolateral media and measured. (C) There was no difference in Dextran 70 kDa diffusion among treatments indicating intact epithelial tight junctions. FITC-Dextran 70 kDa was added to the apical membrane and the diffused Dextran was collected from the basolateral media and measured.

MAGI-1 PDZ1 domain = MAGI-1 PDZ1 domain (Homo sapiens, UniProt Q96QZ7); assay: Ligand binding assay with purified MAGI-1 PDZ1 domain
From the text: as §1, §2

AdV5-Cre = AdV5-Cre intranasal infection of tdT mice; assay type: in vivo, mouse
From the text: as §4
Analysis of lung cryosections from tdT mice pretreated with A) No virus, B) Control (PBS or TAT-CAR^Ex8-AA), or C) PDZ3 TAT-ESAM binding peptide 4 h prior to AdV5-Cre intranasal infection. 20× confocal microscopy. (D) Quantitative analysis of GFP expressing cells in lung cryosections from tdT mice with no virus, pre-treated with control, or PDZ3 binding TAT-ESAM peptides. (E) Quantification of total GFP/Total RFP fluorescence in lung section of different treated conditions by image J analysis. […] Data are average of quantification from 10 sections. *p<0.05.
(A) Quantitative RT-PCR for GFP mRNA expression after isolation of total RNA from lung tissue of control or peptide treated mice. (B) QPCR of viral genome copies in lung tissue from control or peptide treated mice.
Analysis of lung cryosections from tdT mice pretreated with A) No virus, B) Control (PBS), C) PDZ1 TAT-NET1 binding peptide, 4 h prior to AdV5-Cre intranasal infection in B) and C). 20× confocal microscopy. D) Quantitative analysis of the number of GFP expressing cells in lung cryosections from tdT mice with no virus, pre-treated with control PDZ1 TAT-NET1 peptides. E) Quantification of total GFP/Total RFP fluorescence in lung section of different treated conditions by image J analysis. […] Data are average of quantification from 10 sections. *p<0.05.
(A) In tdT tomato mice, all cells contain red fluorescent Tomato protein and fluoresce red. Upon expression of cre recombinase via AdV-Cre infection, infected cells cleave out the tdT gene and express GFP making infected cells fluoresce green. […] F) Quantitation of GFP positive cells per field of view. G) Quantitative RT-PCR for GFP mRNA relative to uninfected tdT mice. […]

CC[C@H](C)[C@H](NC(=O)CNC(=O)[C@H](CC(=O)O)NC(=O)[C@@H](NC(=O)[C@H](CCCCN)NC(=O)[C@H](Cc1ccc(O)cc1)NC(=O)[C@H](CCCNC(=N)N)NC(=O)[C@H](CCCNC(=N)N)NC(=O)[C@H](CCCNC(=N)N)NC(=O)[C@H](CCC(N)=O)NC(=O)[C@H](CCCNC(=N)N)NC(=O)[C@H](CCCNC(=N)N)NC(=O)[C@H](CCCCN)NC(=O)[C@H](CCCCN)NC(=O)[C@H](CCCNC(=N)N)NC(=O)CNC(=O)[C@@H](N)Cc1ccc(O)cc1)[C@@H](C)O)C(=O)N[C@H](C(=O)N[C@H](C(=O)N[C@H](C(=O)O)C(C)C)C(C)C)[C@@H](C)O [TAT-CAR^Ex8]
Kd (MAGI-1 PDZ3 domain): 4 ± 2 nM | Binding to MAGI-1 PDZ2 (MAGI-1 PDZ2 domain): Lack of binding | Peptide entry into cells (MALDI-TOF of cell pellets) (CHO cells): enters cells | Peptide entry into cells (MALDI-TOF of cell pellets) (MDCK epithelia): enters cells | CAR^Ex8 protein level (Western blotting) (CAR^Ex8 [1]; MDCK epithelia): marked increase | Peptide-mediated increase of CAR^Ex8 upon pre-treatment with cycloheximide (CHX) (CAR^Ex8 [1]; MDCK epithelia, with CHX): reduced | Apical CAR^Ex8 (apical surface biotinylation) (CAR^Ex8 [1]; polarized MDCK epithelia): increase | AdV genomic transduction / entry (qPCR of viral genome) (AdV [2]): significant increase | MAGI-1 coimmunoprecipitated with Flag-CAR^Ex8 [3]: marked reduction | CAR^Ex8 immunolocalization / cellular protein level (CAR^Ex8 [4]; polarized MDCK): upregulated in a vesicular pattern within the cytoplasm and at the apical surface | CAR^Ex8 protein level (Western blotting) (CAR^Ex8 [5]): increased | AdV genomic transduction / entry (qPCR of viral genome) (AdV [6]): significant increase | Transepithelial resistance (TER) ([7]; 50 μM daily for 16 days, versus control): No difference | FITC-Dextran 70 kDa diffusion across epithelia ([7]; TAT-PDZ3 peptide study): no difference | FITC-Dextran 4 kDa diffusion across epithelia ([7]; absence of EDTA, TAT-PDZ3 peptide study): no difference | Toxicity to epithelia ([7]; primary human airway epithelia): no overt toxicity

CC(C)C[C@H](NC(=O)[C@@H](NC(=O)[C@H](CCC(=O)O)NC(=O)[C@H](CCCCN)NC(=O)[C@H](CCCCN)NC(=O)[C@H](CCCCN)NC(=O)CNC(=O)CNC(=O)[C@H](CCC(N)=O)NC(=O)[C@@H]1CCCN1C(=O)[C@@H]1CCCN1C(=O)[C@H](CCCNC(=N)N)NC(=O)[C@H](CCCNC(=N)N)NC(=O)[C@H](CCCNC(=N)N)NC(=O)[C@H](CCC(N)=O)NC(=O)[C@H](CCCNC(=N)N)NC(=O)[C@H](CCCNC(=N)N)NC(=O)[C@H](CCCCN)NC(=O)[C@H](CCCCN)NC(=O)[C@H](CCCNC(=N)N)NC(=O)CN)[C@@H](C)O)C(=O)N[C@H](C(=O)O)C(C)C [TAT-NET1]
Kd (MAGI-1 PDZ1 domain): 28 ± 11 nM | CAR^Ex8 protein level (Western blotting) (CAR^Ex8 [1]; MDCK epithelia): marked decrease | AdV genomic transduction / entry (qPCR of viral genome) (AdV [2]): significant decrease | Effect on junctional staining of MAGI-1 (CAR^Ex8 [4]; MDCK, 50 μM): minor to no effect | Immunolocalization of endogenous CAR^Ex8 (CAR^Ex8 [4]; MDCK, 50 μM): delocalization of CAR^Ex8 to the nuclear compartment | CAR^Ex8 protein level (Western blotting) (CAR^Ex8 [5]): marked decrease | AdV genomic transduction / entry (qPCR of viral genome) (AdV [6]): significant decrease | GFP expression (GFP positive cells per field of view, GFP mRNA) (AdV5-Cre; AdV5-Cre intranasal infection, versus control): decreased | GFP expression in lung cryosections (GFP expressing cells, total GFP/Total RFP fluorescence) (AdV5-Cre; peptide 4 h prior to AdV5-Cre intranasal infection): significantly lower | GFP mRNA expression in lung tissue (quantitative RT-PCR) (AdV5-Cre; versus control): significant decrease | Viral genome copies in lung tissue (QPCR) (AdV5-Cre; versus control): significant decrease
